Key:
PARP = PARP cleavage, Western blot, Jurkat T cells; format: cell-based, human
Excerpt: A library of β-lactam analogs was screened for their ability to induce apoptosis. […] This is followed by preparation of cell lysates and measurement of apoptosis-specific caspase-3 activation (by cell-free caspase-3 activity assay) and PARP cleavage (by Western blotting).

Jurkat T cells = assay: TUNEL assay (DNA strand breaks), Jurkat T cells; format: cell-based, human
Method: Terminal deoxynucleotidyl transferase-mediated UTP nick end labeling (TUNEL) was performed to determine the extent of DNA strand breaks. TUNEL assay was performed with an APO-Direct kit per the manufacturer's instructions. In brief, cells are fixed in 1% paraformaldehyde and ethanol at […] overnight and then permeabilized with Proteinase K. After permeabilization, Fluorescein conjugated dNTP's and TdT enzyme (Terminal Deoxynucleotidyl Transferase) are added to the cells. The TdT enzyme is then able to label free ends of DNA with Fluorescein conjugated dNTPs that could then be detected by flow cytometry.
The assay was performed following manufacturer's instruction using the APO-Direct kit. In brief, the harvested cells were fixed in 1% paraformaldehyde for 15 min on ice, washed with PBS, and then fixed again in 70% ethanol at −20° C. overnight. The cells were then incubated in DNA labeling solution (containing terminal deoxynucleotidyl transferase (TdT) enzyme, fluorescein-conjugated dUTP and reaction buffer) for 90 min at 37° C. After removing the DNA labeling solution by rinsing cells with Rinsing Buffer, the cells were incubated with the Propidium Iodide/RNase A solution, incubated for 30 min at room temperature in the dark, and then analyzed by flow cytometry within 3 h of staining.

Question: What does the source list for `O=[N+]([O-])c1ccc(-c2nc(-c3ccc(F)cc3)c(-c3ccncc3)[nH]2)cc1` [PD-169316, 4-(4-fluorophenyl)-2-(4-nitrophenyl)-5-(4-pyridyl)-1H-imidazole, reference compound]?
Answer: effect on PARP cleavage induced by lactam 1 (PARP): completely inhibited; TUNEL positivity on co-treatment with lactam 1 (Jurkat T cells): 95%
